{
  "source": "ChEMBL document CHEMBL4616713",
  "about": "“Discovery of Novel Nonpeptidic PAR2 Ligands” (ACS Med Chem Lett, 2020)",
  "target": "T1, Proteinase-activated receptor 2 (Homo sapiens) (UniProt P55085)",
  "T1 sequence (whole entry)": "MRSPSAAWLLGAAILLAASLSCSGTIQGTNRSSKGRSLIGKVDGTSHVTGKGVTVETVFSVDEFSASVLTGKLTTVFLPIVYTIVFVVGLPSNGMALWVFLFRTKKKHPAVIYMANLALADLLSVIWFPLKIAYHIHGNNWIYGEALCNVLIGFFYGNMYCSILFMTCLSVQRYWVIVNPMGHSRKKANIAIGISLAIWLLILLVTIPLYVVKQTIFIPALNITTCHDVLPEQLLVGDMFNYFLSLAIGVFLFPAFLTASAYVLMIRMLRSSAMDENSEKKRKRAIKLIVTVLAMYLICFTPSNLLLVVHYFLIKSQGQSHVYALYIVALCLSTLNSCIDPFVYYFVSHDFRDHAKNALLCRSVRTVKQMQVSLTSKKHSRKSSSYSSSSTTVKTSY",
  "experiment": "Selectivity ratio of EC50 for agonist activity at PK1-tagged PAR2 (unknown origin) expressed in HEK293 cells assessed as induction of beta-arrestin recruitment incubated for 90 mins by Pathhunter chemiluminescent assay to EC50 for agonist activity at human PAR2 expressed in HEK293T cells assessed as induction of Galphaq-stimulated IP1 formation incubated for 2 hrs by FRET assay",
  "type": "cell-based",
  "data": [
    {"smiles": "Cc1cc(C(=O)N[C@@H](CC2CCCCC2)C(=O)NCc2ccccc2CC(N)=O)on1", "values": [
      {"measurement": "Ratio EC50", "result": 14}
    ]}
  ]
}
